The target of one assay is Kv1.3 (Homo sapiens, UniProt P22001). The assay is described as follows: Assay for inhibitory activity against Kv1.X, whole-cell patch-clamp (peak current). To be noted: read-out: IC50 Kv1.3, HEK293 cells stably expressing Kv1.3, room temperature. As for the experimental part:
(§1) HEK293 cells stably expressing Kv1.X (Kv1.1, Kv1.2, Kv1.3, Kv1.4, Kv1.5) potassium channels were cultured in a DMEM medium containing 10% fetal bovine serum and 800 µg/mL G418 (geneticin) at a culture temperature of 37 °C and a carbon dioxide concentration of 5%.
(§2) The extracellular solution contained 40 mM NaCl, 3.5 mM KCl, 1 mM MgCl2•6H2O, 2 mM CaCl2•2H2O, 10 mM D-glucose, 10 mM HEPES, 1.25 mM NaH2PO4•2H2O, and the pH was adjusted to 7.4 with NaOH. The intracellular solution contained 20 mM KCl, 115 mM K-Aspartic, 1 mM MgCl2•6H2O, 5 mM EGTA, 10 mM HEPES, 2 mM Na2-ATP, and the pH was adjusted to 7.2 with KOH.
(§3) The voltage stimulation protocol for recording whole-cell Kv1.X potassium currents via patch-clamp is as follows: After formation of a whole-cell seal, the cell membrane voltage was clamped at -80 mV, and then stepped to +40 mV for 500 ms. Data were acquired repeatedly every 30 s and the effect of the drug on Kv1.X current was observed. The test data were acquired by the EPC-10 amplifier (HEKA) and stored in the PatchMaster (HEKA) software.
(§4) Recording electrodes were drawn from capillary glass tubes using a microelectrode puller. Under an inverted microscope, the recording electrode was brought into contact with the cell surface by manipulating a microelectrode manipulator. Negative-pressure suction was applied to form a GΩ seal. After formation of the GΩ seal, a rapid capacitance compensation was given. The application of negative pressure was continued to rupture the cell membrane, forming a whole-cell recording mode. Then, a slow capacitance compensation was given, and the membrane capacitance and series resistance were recorded. No current leakage compensation was provided.
(§5) Once the whole-cell recorded Kv1.X current stabilized, drug administration was started. Each drug concentration was allowed to act for 5 min (or until the current reached a steady state) before the next concentration was tested. Multiple concentrations were tested for each test compound. The cover glass plated with the cells was placed in a recording chamber of the inverted microscope. The test compound and the compound-free extracellular solution sequentially flowed through the recording chamber from low concentrations to high concentrations using a gravity perfusion method to act on the cells, and liquid exchange was performed using a vacuum pump during recording. For each cell, the current detected in the compound-free extracellular solution was used as its own control group. The test was independently repeated three times using at least three cells per concentration. All electrophysiological experiments were performed at room temperature.
(§6) First, the peak current elicited by each drug concentration was normalized to the peak current of the blank control ( (Peak currentcompound)/(Peak currentcontrol) [formula] ), and then the inhibition rate corresponding to each drug concentration was calculated ( 1−(Peak currentcompound)/(Peak currentcontrol) [formula] ). Subsequently, the mean, standard deviation (SD), and standard error (SE) were calculated for the inhibition rate corresponding to each concentration. Y = Bottom + (Top−Bottom)/(1+10((LogIC50−X)×HillSlope)) [formula]
(§7) Using the above equation, the IC50 value for each compound was calculated, and the dose-dependent effect was subjected to non-linear fitting, where IC50 is the half maximal inhibitory concentration. IC50 calculation and curve fitting were performed using the GraphPad Prism software.

Amino acid sequences for entries named in this document (tags omitted).
UniProt P22001, whole entry: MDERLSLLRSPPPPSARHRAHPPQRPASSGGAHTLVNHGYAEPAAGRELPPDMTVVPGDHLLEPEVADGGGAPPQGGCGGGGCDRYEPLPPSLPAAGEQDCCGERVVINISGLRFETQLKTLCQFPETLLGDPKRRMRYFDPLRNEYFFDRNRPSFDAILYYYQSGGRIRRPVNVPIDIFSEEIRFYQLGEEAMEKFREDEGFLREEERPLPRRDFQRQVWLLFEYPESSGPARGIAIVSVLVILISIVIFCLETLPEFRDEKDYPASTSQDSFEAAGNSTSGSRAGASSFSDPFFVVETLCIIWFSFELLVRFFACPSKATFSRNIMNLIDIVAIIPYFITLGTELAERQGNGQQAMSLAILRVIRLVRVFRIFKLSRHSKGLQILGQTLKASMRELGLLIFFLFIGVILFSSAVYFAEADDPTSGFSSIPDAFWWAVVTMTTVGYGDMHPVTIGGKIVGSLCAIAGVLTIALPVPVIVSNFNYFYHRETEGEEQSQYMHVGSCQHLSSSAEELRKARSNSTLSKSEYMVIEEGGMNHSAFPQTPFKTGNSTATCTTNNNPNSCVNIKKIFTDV
UniProt P22459, whole entry: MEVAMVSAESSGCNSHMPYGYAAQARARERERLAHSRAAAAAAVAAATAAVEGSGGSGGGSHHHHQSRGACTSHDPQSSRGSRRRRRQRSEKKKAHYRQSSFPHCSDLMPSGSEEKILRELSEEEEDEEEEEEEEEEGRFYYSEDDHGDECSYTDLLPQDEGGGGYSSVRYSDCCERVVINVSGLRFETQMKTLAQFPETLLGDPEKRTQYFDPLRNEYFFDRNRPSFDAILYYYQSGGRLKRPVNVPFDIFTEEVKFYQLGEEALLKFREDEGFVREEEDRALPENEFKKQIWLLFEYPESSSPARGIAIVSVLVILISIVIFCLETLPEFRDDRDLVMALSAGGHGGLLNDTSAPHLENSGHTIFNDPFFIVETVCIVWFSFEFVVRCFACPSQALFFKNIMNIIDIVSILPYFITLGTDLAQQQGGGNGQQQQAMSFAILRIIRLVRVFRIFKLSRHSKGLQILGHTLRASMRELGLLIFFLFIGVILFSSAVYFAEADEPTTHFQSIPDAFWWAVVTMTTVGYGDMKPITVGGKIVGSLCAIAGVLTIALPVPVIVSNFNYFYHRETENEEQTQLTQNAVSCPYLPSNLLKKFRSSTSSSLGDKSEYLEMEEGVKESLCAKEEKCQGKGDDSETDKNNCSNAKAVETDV
UniProt Q09470, whole entry: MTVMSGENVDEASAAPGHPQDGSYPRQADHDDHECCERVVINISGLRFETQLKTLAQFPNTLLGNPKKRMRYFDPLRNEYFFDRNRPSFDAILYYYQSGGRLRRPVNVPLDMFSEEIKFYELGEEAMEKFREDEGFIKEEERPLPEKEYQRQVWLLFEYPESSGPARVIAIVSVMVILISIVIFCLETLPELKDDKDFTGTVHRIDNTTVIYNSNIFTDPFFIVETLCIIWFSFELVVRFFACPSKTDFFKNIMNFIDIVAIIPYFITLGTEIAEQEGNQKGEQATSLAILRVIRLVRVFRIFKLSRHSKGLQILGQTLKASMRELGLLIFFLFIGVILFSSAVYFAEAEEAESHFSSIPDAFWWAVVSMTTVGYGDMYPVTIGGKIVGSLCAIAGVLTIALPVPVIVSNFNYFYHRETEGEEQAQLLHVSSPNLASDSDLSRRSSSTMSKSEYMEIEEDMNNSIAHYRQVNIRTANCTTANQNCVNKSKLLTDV
UniProt P16389, whole entry: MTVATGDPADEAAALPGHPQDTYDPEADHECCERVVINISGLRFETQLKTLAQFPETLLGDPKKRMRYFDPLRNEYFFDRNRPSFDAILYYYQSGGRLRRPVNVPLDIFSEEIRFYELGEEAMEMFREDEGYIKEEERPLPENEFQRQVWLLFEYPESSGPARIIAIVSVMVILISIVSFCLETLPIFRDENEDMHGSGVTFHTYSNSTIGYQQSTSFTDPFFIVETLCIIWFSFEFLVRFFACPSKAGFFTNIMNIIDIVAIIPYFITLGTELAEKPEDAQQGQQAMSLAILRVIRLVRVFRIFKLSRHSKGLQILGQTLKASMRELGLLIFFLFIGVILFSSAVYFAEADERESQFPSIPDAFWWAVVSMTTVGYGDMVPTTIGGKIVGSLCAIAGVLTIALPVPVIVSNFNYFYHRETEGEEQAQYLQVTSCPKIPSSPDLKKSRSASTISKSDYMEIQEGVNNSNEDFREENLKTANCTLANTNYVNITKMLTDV
UniProt P22460, whole entry: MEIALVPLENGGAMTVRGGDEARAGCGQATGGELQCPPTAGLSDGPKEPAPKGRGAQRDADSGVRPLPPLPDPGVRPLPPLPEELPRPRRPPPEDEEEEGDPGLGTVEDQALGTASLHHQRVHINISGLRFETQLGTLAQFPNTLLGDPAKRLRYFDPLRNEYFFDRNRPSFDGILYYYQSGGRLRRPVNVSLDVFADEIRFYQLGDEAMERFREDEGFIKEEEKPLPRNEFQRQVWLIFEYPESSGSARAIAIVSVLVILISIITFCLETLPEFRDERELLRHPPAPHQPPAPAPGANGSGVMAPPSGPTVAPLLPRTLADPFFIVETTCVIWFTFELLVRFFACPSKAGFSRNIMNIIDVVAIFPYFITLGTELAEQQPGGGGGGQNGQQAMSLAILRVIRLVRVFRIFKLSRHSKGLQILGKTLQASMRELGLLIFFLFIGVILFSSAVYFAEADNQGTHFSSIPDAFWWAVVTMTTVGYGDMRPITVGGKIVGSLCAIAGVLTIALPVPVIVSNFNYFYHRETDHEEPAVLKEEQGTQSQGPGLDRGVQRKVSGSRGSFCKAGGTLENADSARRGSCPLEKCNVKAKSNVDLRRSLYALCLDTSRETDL
UniProt Q12809, whole entry: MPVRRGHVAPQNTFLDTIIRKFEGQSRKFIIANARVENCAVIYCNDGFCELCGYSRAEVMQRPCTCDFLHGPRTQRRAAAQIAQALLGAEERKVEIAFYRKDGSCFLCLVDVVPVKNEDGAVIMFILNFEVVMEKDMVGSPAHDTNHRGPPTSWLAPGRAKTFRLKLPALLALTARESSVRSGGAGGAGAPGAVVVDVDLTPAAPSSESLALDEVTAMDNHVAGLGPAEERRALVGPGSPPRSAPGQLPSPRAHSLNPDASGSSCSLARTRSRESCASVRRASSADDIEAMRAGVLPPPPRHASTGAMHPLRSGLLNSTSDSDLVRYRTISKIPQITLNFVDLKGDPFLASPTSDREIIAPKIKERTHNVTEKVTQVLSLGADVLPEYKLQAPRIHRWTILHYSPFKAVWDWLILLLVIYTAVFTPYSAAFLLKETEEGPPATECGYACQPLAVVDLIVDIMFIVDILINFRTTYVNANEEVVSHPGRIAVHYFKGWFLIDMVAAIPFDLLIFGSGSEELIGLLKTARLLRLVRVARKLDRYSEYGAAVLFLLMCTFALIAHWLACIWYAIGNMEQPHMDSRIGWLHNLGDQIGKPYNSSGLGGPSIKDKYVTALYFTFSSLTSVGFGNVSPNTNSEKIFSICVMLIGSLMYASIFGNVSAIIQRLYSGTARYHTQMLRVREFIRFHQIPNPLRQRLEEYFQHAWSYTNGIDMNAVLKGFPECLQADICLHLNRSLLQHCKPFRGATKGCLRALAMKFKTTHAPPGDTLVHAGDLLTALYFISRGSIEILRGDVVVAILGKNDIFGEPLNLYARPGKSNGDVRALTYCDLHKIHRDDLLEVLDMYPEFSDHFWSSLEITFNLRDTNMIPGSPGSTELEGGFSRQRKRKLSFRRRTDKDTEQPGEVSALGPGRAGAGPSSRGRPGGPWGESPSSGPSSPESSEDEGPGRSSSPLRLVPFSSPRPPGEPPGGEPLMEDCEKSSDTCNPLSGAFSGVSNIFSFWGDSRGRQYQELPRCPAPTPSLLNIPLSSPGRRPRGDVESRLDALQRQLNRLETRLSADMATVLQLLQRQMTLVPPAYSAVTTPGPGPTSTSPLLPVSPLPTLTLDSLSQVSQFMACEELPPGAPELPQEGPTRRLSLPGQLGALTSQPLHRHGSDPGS

The target of a further assay is Kv1.4 (Homo sapiens, UniProt P22459). Described as above. To be noted: read-out: IC50 Kv1.4, HEK293 cells stably expressing Kv1.4. Here is the method: as §1, §2, §3, §4, §5, §6, §7
Another assay has as its target Kv1.1 (Homo sapiens, UniProt Q09470). The assay is described as follows: Assay for inhibitory activity against Kv1.X, whole-cell patch-clamp (steady state current). Particulars: read-out: IC50 Kv1.1, HEK293 cells stably expressing Kv1.1. Here is the method:
as §1, §2, §3
(§8) Recording electrodes were drawn from capillary glass tubes using a microelectrode puller. […] Then, a slow capacitance compensation was given, and the membrane capacitance and series resistance were recorded. […]
(§9) Once the whole-cell recorded Kv1.X current stabilized, drug administration was started. […] For each cell, the current detected in the compound-free extracellular solution was used as its own control group. […]
(§10) First, the current elicited by each drug concentration was normalized to the current of the blank control ( (Steady state currentcompound)/(Steady state currentcontrol) [formula] ), and then the inhibition rate corresponding to each drug concentration was calculated ( 1−(Steady state currentcompound)/(Steady state currentcontrol) [formula] ).
(§11) Using the above equation, the IC50 value for each compound was calculated, and the dose-dependent effect was subjected to non-linear fitting, where IC50 is the half maximal inhibitory concentration. […]
For orientation: Patch clamp records ionic current or voltage across a cell membrane.

Another assay has as its target Kv1.2 (Homo sapiens, UniProt P16389). The assay is described as above. To be noted: read-out: IC50 Kv1.2, HEK293 cells stably expressing Kv1.2. Here is the method: as §1, §2, §3, §8, §9, §10, §11
In another assay the target is Kv1.5 (Homo sapiens, UniProt P22460). The assay is described as above. Particulars: read-out: IC50 Kv1.5, HEK293 cells stably expressing Kv1.5. Here is the method: as §1, §2, §3, §8, §9, §10, §11
In the next assay the target is hERG (Homo sapiens, UniProt Q12809). The assay is described as follows: Assay for inhibitory activity against hERG, whole-cell voltage-clamp. Particulars: read-out: IC50 hERG; CHO cells stably expressing hERG; peak tail current at -50 mV. As for the experimental part: CHO cells stably expressing hERG were cultured in 35-mm diameter cell culture dishes at 37 °C in a 5% CO2 incubator. The cells were passaged at a ratio of 1:5 every 48 h. The medium recipe is as follows: 90% F12 (Invitrogen), 10% fetal bovine serum (Gibco), 100 µg/mL G418 (Invitrogen), and 100 µg/mL Hygromycin B (Invitrogen). On the day of the test, the cell culture medium was aspirated, and the cells were rinsed once with the extracellular solution. Then, a 0.25% Trypsin-EDTA solution (Invitrogen) was added, and the cells were digested at room temperature for 3-5 min. The digestion solution was then aspirated, and the cells were resuspended in the extracellular solution and transferred to an experimental dish for electrophysiological recording for later use.
hERG potassium channel currents were recorded at room temperature by the whole-cell voltage-clamp technique in the CHO cells stably expressing hERG potassium channels. Glass microelectrodes were formed by pulling a glass electrode blank (BF150-86-10, Sutter) using a puller. […] The clamping voltage and data recording were controlled and recorded by a computer with the pClamp software, with a sampling frequency of 10 kHz and a filtering frequency of 2 kHz. […] This voltage stimulation was applied every 5 s, and after the hERG potassium currents were determined to be stable (for 1 min), the drug application was started. […]

From patent EP4831178A1, “ARYL HETEROCYCLIC KV1.3 INHIBITOR, AND PREPARATION METHOD THEREFOR AND USE THEREOF” (dated 2026) come the findings set out here.

Some results are limits rather than exact numbers.

By IC50 is commonly meant the point on the concentration scale where inhibition reaches its midpoint.

With `Oc1ccc(Cl)c(Cl)c1[C@H]1Cc2cn([C@H]3CCNC3)nc2C1`, on Kv1.3, the IC50 is 6.63 nM.
The same measure, in the same setting: then `Oc1ccc(Cl)c(Cl)c1[C@@H]1Cc2cnn([C@@H]3CCNC3)c2C1`, with 3.81 nM; and `Oc1ccc(Cl)c(Cl)c1[C@@H]1Cc2ncc([C@H]3CCNC3)n2C1`, with 1.4 nM.
Regarding `Oc1ccc(Cl)c(Cl)c1[C@@H]1Cc2cn([C@H]3CCNC3)nc2C1`, the IC50 on Kv1.3 came to 7.46 nM.
On the same count and under the same terms, in the case of `Oc1ccc(Cl)c(Cl)c1[C@H]1Cc2cnn([C@@H]3CCNC3)c2C1` it was 18.7 nM.
`Oc1ccc(Cl)c(Cl)c1[C@@H]1Cc2ncc([C@@H]3CCNC3)n2C1`: the concentration for half-maximal inhibition (IC50) at Kv1.3 was 0.48 nM; at Kv1.4, 1220 nM; at Kv1.1, 81500 nM; on Kv1.2, > 100000 nM; at Kv1.5, > 100000 nM; at hERG, 30700 nM.
